We go through one compound from patent US9624218B2 (Eli Lilly and Company, priority 2014, dated 2017).

Each structure is given as a SMILES string. Counter-ions that a name gives are not always drawn.

Experiment [1] deals with EGFP-Axin2 fusion protein. The conditions noted are these: read-out: Axin2 Stabilization EC50; HEK293 EGFP-Axin2 cells, 24 hours; Mean ± SEM.
Experiment [2] relates to Wnt-inducible genes (TCF/LEF luciferase reporter in DLD-1 TOPFlash cells). Put plainly: cells. The conditions noted are these: Homo sapiens, DLD-1, 24 h, read-out: Wnt-inducible gene expression inhibition IC50, DLD-1 TOPFlash cells, 24 hours; Mean ± SEM.

One may read the EC50 as the concentration giving half of the maximal effect. As a reminder, the IC50 is the concentration needed to halve the response being measured. Regarding `CN1CCCc2c1nc(N1CCN(Cc3ncccc3C(F)(F)F)CC1)[nH]c2=O` [Example 35, 8-Methyl-2-[4-[[3-(trifluoromethyl)-2-pyridyl]methyl]piperazin-1-yl]-3,5,6,7-tetrahydropyrido[2,3-d]pyrimidin-4-one dihydrochloride], the EC50 in experiment [1] is 27.8 nM. The concentration for half-maximal inhibition (IC50) in experiment [2] came to 5.8 nM.
